Data as given in patent publication US12125561B2, “Determination of JAK-STAT3 pathway activity using unique combination of target genes” (InnoSIGN B.V., priority 2017, dated 2024).

What was measured:
[1] = tested on: JAK-STAT3 cellular signaling pathway in Sez-4 cell line (cutaneous T-cell lymphoma); assay: JAK-STAT3 pathway activity, blood Bayesian network model, calibration on data set GSE8687; type: cell-based; settings: calibration samples; cells starved of IL-2 inactive; FIG. 10
Excerpt: A further selection of the evidence curated list of target genes (listed in Table 2) was made by the inventors. The target genes of the evidence curated list that were proven to be more probative in determining the activity of the JAK-STAT3 signaling pathway from the training samples were selected. Herein, available expression data sets of EGFR mutant cells of lung cancer from data set GSE57156 were used. […] Regarding the JAK-STAT3 blood model, a Sez-4 cell line, which was derived from a cutaneous T-cell lymphoma in data set GSE8687, was adopted to select the target genes shortlist.
Herein, we have used publically available mRNA expression data from Affymetrix U133Plus2.0 on two data sets from the GEO database. Because the STAT3 pathway activation of solid cancer cells and blood cells has slightly different effects on the target gene expression levels, two different calibration data sets were used, representative for STAT3 activation in solid cancer cell and blood cell. One data set has EGFR mutant cells from non-small cell lung cancers.
The training group included 3 samples with cells cultured with IL-2, which were STAT3 active. The model was tested on other samples treated with pan-Jak inhibitor (group 3) and Jak3 inhibitor (group 4).

[2] = tested on: JAK-STAT3 cellular signaling pathway in Sez-4 cell line (cutaneous T-cell lymphoma); assay: JAK-STAT3 pathway activity prediction, blood model, data set GSE8685; type: cell-based; settings: cells starved of IL-2 for 16 hours, then IL-2 (200 U) resp. IL-15 (20 ng/mL); FIG. 16
Experimental: A Sez-4 cell line which was derived from a cutaneous T-cell lymphoma (data set GSE8685). The cells starved of IL-2 for 16 hours (group 1), followed by addition of IL-2 (200 U) resp. IL-15 (20 ng/mL). […] The JAK-STAT3 blood model correctly predicts that JAK-STAT3 is active in the cells that were treated with IL-2 (group 2) and IL-15 (group 3) compared to the control group (group 1).

## IL-2: cytokine with which Sez-4 cells were cultured
[1]
  JAK-STAT3 pathway status of cultured cells (odds that the TF element is present): STAT3 active
[2]
  predicted JAK-STAT3 pathway status compared to the control group: active
